This passage reports PI results from ChEMBL document CHEMBL1155915, “Anticonvulsant activity of some xanthone derivatives” (Bioorg Med Chem, 2008).

The species entered for this experiment is Mus musculus. Description: Protective index, ratio of TD50 for mouse by rotarod test to ED50 for mouse by MES test. The experiment is classed as functional. On the technique in general: The rotarod test checks motor coordination on a turning rod.

On to `NC(=O)N1c2ccccc2C=Cc2ccccc21` [CARBAMAZEPINE], for which the PI is 4.9.
